This is a selection; strong and weak results do not stand in their true shares. The source made the active and inactive calls. Calls come from the whole dose curve; as a rule, active = well fitted activation curve with a large enough effect; inconclusive = small, poorly fitted or top-dose-only effect; inactive = no such curve, though single readings can be large or run the other way.
What follows are compounds tested against Rap guanine nucleotide exchange factor 4 (Homo sapiens) (UniProt Q8WZA2) (assay: qHTS for Agonist of cAMP-regulated guanine nucleotide exchange factor 4 (EPAC2): primary screen). Settings: biochemical qHTS, 100% = 6.5 mM cAMP response; at 154 µM (top of the series).
From the text: In multi-cellular eukaryotic organisms, the effects of cAMP are transduced by two ubiquitously-expressed intracellular cAMP receptors, the classic protein kinase A/cAMP-dependent protein kinase (PKA/cAPK) and the more recently discovered exchange protein directly activated by cAMP/cAMP-regulated guanine nucleotide exchange factor (EPAC/cAMP-GEF). Both PKA and EPAC are ubiquitously expressed in all tissues, and an increase in intracellular cAMP levels will lead to the activation of both PKA and EPAC. Therefore, careful dissections of the individual role and relative contribution of EPAC and PKA within the overall cAMP signaling in various model systems are critical for further elucidating the mechanism of cAMP signaling. To date no EPAC-specific antagonists and agonist, as well as isoform-specific agonists have been reported, and developing EPAC-specific pharmacological probes to determine the physiological functions that EPAC play in the overall cAMP-mediated signaling remains a major challenge within the research field. Furthermore, identified regulators of EPAC may lead to new mechanism-based therapeutic strategies specifically targeting the EPAC / cAMP-signaling components as EPAC has been implicated to play important roles in major human pathological conditions such as diabetes, heart disease, and cancer.
This qHTS will be used to screen the Molecular Libraries Small Molecule Repository (MLSMR) as a concentration-titration series using the NCGC unique quantitative screening (qHTS) platform to find activators for EPAC2. In addition, this assay will also be used as a counterscreen for the EPAC1 qHTS. This fluorescent based assay is developed and validated for EPAC2 that measures exchange using EPAC effector Rap1 complex with BODIPY-GDP, a GDP analog with a tethered fluorophores. Activators are identified by monitoring the change in fluorescence signal as the exchanged free BODIPY-GDP has a reduced fluorescence compared to Rap1-bound BODIPY-GDP. […] in signal (activation) is the desired outcome for the EPAC2 agonist while no activity in this assay is desired for the EPAC1 agonist counterscreen.
[1] de Rooij, J., Zwartkruis, F. J., Verheijen, M. H., Cool, R. H., Nijman, S. M., Wittinghofer, A., and Bos, J.L. (1998) Nature 396, 474-477
[2] Kawasaki, H., Springett, G. M., Mochizuki, N., Toki, S., Nakaya, M., Matsuda, M., Housman, D. E., and Graybiel, A. M. (1998) Science 282, 2275-2279
NIH Chemical Genomics Center [NCGC]
NIH Molecular Libraries Probe Centers Network [MLPCN]
Assay Submitter (PI): Xiaodong Cheng, The University of Texas, Medical Branch
Briefly, three uL of reagents (100 nM EPAC2, 250 nM RAP1B-BODIPY-GDP, 50 uM GDP) were dispensed into a 1536-well Greiner black solid-bottom medium binding assay plate. Controls and test compounds (23 nL) were transferred to the plate via a Kalypsys pin tool equipped with a 1536-pin array. The plates were centrifuged at 1,000 rpm for 15 seconds followed by 5 minute incubation at room temperature. The assay plates were read at 5 minute intervals for 30 minutes in the ViewLux plate reader using 480nm excitation and 540nm emission filters. The results were normalized to the agonist positive control of 6.5 mM cAMP.
Note: nearly all actives have a fitted effect of over 50% in size.

The chains behind the UniProt entries cited, without tags or fusion partners. Where a name states a change or a piece, a line headed by the entry shows the natural chain unless it says otherwise.
UniProt Q8WZA2: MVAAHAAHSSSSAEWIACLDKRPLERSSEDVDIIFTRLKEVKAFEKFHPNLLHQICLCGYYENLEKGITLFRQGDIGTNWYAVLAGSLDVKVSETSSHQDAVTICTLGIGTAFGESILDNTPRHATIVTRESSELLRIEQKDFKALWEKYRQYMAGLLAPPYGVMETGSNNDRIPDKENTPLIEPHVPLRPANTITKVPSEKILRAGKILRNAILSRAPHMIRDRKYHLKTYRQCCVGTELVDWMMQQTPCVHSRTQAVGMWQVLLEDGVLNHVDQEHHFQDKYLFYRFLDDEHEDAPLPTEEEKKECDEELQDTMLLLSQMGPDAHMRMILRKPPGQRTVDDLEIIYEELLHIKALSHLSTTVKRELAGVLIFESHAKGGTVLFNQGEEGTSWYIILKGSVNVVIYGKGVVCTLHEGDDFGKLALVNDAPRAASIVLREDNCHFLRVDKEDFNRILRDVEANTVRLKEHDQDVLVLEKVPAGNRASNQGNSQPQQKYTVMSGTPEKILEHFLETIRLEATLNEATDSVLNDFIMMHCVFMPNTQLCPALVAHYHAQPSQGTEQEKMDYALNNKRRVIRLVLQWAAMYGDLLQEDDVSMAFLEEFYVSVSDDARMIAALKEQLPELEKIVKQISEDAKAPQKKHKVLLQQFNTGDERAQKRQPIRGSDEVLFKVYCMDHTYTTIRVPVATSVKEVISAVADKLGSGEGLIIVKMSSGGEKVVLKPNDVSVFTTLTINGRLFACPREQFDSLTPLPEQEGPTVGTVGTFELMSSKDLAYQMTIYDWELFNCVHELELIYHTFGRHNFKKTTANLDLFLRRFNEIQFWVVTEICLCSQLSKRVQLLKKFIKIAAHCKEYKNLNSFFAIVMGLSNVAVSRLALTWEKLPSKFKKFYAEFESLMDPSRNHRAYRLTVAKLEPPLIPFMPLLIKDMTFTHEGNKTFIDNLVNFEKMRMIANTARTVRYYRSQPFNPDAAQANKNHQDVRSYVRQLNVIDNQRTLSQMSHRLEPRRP

SMILES | activation
Cc1ccc(OCC(=O)OC2CN3CCC2CC3)cc1 (centres undefined) | inactive: -2.2%
Nc1cccc([As](=O)(O)c2ccccc2)c1 | inactive: 7.06%
Cc1ccc(C(=O)OC2CN3CCC2CC3)cc1 (centres undefined) | inactive: -2.21%
CC1CCC(C(C)C)C(OP(=O)(Nc2ccccn2)c2ccccc2)C1 (centres undefined) | inactive: -12.2%
Cc1nn(-c2ccccc2)c2c1P(=O)(N1CCOCC1)N(C)C(c1ccccc1)=N2 (centres undefined) | inactive: 6.81%
CCCC1OP(=O)(Nc2ccccc2)OCC1CC (centres undefined) | inactive: 6.39%
O=C(/C=C/c1ccccc1)OC1CN2CCC1CC2 (centres undefined) | inactive: 3.41%
CN(C)C1(CNC(=O)c2ccc(S(C)(=O)=O)cc2)CCCCC1 | inactive: 4.12%
NC(=O)Nc1ccc([As](=O)(O)O)cc1 | inactive: 2.53%
CN(C(=O)Cc1ccc(Cl)c(Cl)c1)[C@H]1CC[C@@]2(CCCO2)C[C@@H]1N1CCCC1 | inactive: -1.48%
CN(C)C(=O)c1cc([N+](=O)[O-])cc2c1-c1c(cc([N+](=O)[O-])cc1[N+](=O)[O-])C2=O | inactive: 13%
O=[N+]([O-])c1ccc2c(c1)nnn2O | inactive: 4.32%
CCOP1(=S)c2c(C)nn(CCC#N)c2N=C(c2ccc(F)cc2)N1C (centres undefined) | inactive: 7.59%
CN(C(=O)Cc1ccccc1)[C@@H]1CC[C@]2(CCCO2)C[C@H]1N1CCCC1 | inactive: 5.51%
N#CCCN(C(=O)COC(=O)C(O)(c1ccccc1)c1ccccc1)c1ccc(F)cc1 | inactive: 22%
CS(=O)(=O)c1cc([N+](=O)[O-])c2no[n+]([O-])c2c1 | inactive: 1.03%
O=P(Nc1nccs1)(c1ccccc1)c1nc2ccccc2s1 (centres undefined) | inactive: 7.14%
O=P(Nc1nccs1)(Oc1ccccc1)Oc1ccccc1 | inactive: 12.7%
CCOP1(=S)c2c(C)nn(CCC#N)c2N=C(c2ccccc2F)N1C (centres undefined) | inactive: 0.679%
O=C(O)COc1ccc([As](=O)(O)O)cc1[N+](=O)[O-] | inactive: 7.37%
Nc1ccccc1[As](=O)(O)c1ccccc1 | inactive: -0.319%
CCCOP(=S)(Nc1nc(N)cc(=O)[nH]1)OCCC | inactive: 3.43%
Nc1cccc2c([As](=O)(O)O)cccc12 | inactive: 7.26%
Cc1ccc(NCCc2c([N+](=O)[O-])cc([N+](=O)[O-])cc2[N+](=O)[O-])cc1 | inactive: 1.5%
CCOP(=O)(Nc1cccc2ccccc12)OCC | inactive: 9.73%

SMILES | activation
COc1cc(C2NCCC3(OCCO3)C2(C)C)cc(OC)c1OC (centres undefined) | inactive: 3.39%
CS(=O)(=O)c1ccc(Cl)c(NC(=O)COC(=O)C(O)(c2ccccc2)c2ccccc2)c1 | inactive: 4.02%
COc1cc(C(=O)NCC2(N3CCOCC3)CCCCC2)cc(Cl)c1OC(C)C | inactive: 0.639%
O=[As](O)(O)c1cccnc1 | inactive: 1.7%
O=C(OC1CN2CCC1CC2)c1ccc(Cl)cc1 (centres undefined) | inactive: 6.01%
O=[As](O)(c1cccc(O)c1)c1cccc(O)c1 | inactive: 8.38%
Cc1cccc(OCC(=O)OC2CN3CCC2CC3)c1 (centres undefined) | inactive: -1.42%
COc1ccc(N/C(=N/P(=O)(N2CCOCC2)N2CCOCC2)N2CCOCC2)cc1 | inactive: 0.532%
O=[N+]([O-])c1cc(Oc2ccc([N+](=O)[O-])cc2C(F)(F)F)cc([N+](=O)[O-])c1 | inactive: 5.01%
Cc1cc(=O)[nH]c(N[N+](=O)[O-])n1 | inactive: 6.3%
O=C(OC1CN2CCC1CC2)C12CC3CC(CC(C3)C1)C2 (centres undefined) | inactive: 12.2%
Cc1c2c(nc3ccccc13)SC(C(Cl)Cl)C2 (centres undefined) | inactive: 20.1%
COc1cc(I)ccc1[As](=O)(O)O | inactive: 3.69%
COc1ccc2nc(NP(=O)(c3ccccc3)c3ccccc3)sc2c1 | inactive: -5.07%
O=P1(N(CCCl)CCCl)OCCCN1CCCl (centres undefined) | inactive: 15.3%
O=P1(N(CCCl)CCCl)Nc2ccccc2N1 | inactive: 9.55%
CC(C)c1ccc(OP(=O)(Nc2ccccn2)Oc2ccccc2F)cc1 (centres undefined) | inactive: 10.1%
COC(=O)C1(C)COP(=O)(N2CCCCCC2)OC1 (centres undefined) | inactive: 5.15%
ClCCSc1nnc(-c2cccnc2)o1 | inactive: 1.79%
O=[N+]([O-])c1cc([N+](=O)[O-])c(-c2ccn[nH]2)s1 | inactive: 3.59%
O=C(OC1CN2CCC1CC2)c1cccc2[nH]cnc12 (centres undefined) | inactive: 6.75%
CCN(CC)C(=S)SC(NC=O)C(Cl)(Cl)Cl (centres undefined) | inactive: -10.2%
CC(C)NC(=O)NP(=O)(Oc1ccccc1)Oc1ccccc1 | inactive: 2.04%
COc1cc(C(=O)NCC2(N3CCOCC3)CCCCC2)ccc1OCC(C)C | inactive: 1.28%
O=[N+]([O-])c1ccc(-c2cc([N+](=O)[O-])c(O)c([N+](=O)[O-])c2)cc1 | inactive: 2.75%

SMILES | activation
O=[As](O)(c1ccc(O)cc1)c1ccccc1O | inactive: -2.85%
C[As](=O)(O)c1cccc(C(=O)O)c1 | inactive: 8.76%
Cc1ccc2nc3c(c(C)c2c1)CC(C(Cl)Cl)S3 (centres undefined) | inactive: 5.09%
Cc1ccc(OP(=O)(Nc2ccc([N+](=O)[O-])cn2)Oc2ccc(C)cc2)cc1 | inactive: 2.23%
[N-]=[N+]=NC1CCCCC1NC(=O)c1cc([N+](=O)[O-])cc([N+](=O)[O-])c1 (centres undefined) | inactive: 11.4%
CCOC(=O)Nc1cccc([As](=O)(O)O)c1 | inactive: 0.448%
O=[N+]([O-])c1ccc(Nc2ccc(Oc3ccc([N+](=O)[O-])cc3[N+](=O)[O-])cc2)c([N+](=O)[O-])c1 | inactive: 8.85%
Cc1cc(SC(NC=O)C(Cl)(Cl)Cl)ncn1 (centres undefined) | inactive: -5.39%
O=P(Nc1ccccn1)(c1cccc2ccccc12)c1cccc2ccccc12 | inactive: 7.34%
CC1CCNP(=O)(N(CCCl)CCCl)O1 (centres undefined) | inactive: 5.95%
O=C(O)C(O)c1ccc(N(CCCl)CCCl)cc1 (centres undefined) | inactive: 5.13%
CCOC(=O)Nc1ccc([As](=O)(O)O)c(O)c1 | inactive: 1.55%
Cc1cc(SC(NC(=O)c2ccccc2)C(Cl)(Cl)Cl)nc(C(C)C)n1 (centres undefined) | inactive: 3.74%
CCCCOc1ccc(C(=O)NCC2(N3CCCCC3)CCCCC2)cc1OC | inactive: 4.02%
COP(=O)(OC)N1CC1c1ccccc1 (centres undefined) | inactive: 10%
CCOC(=O)c1ccc(NC(=O)C(C)(CCl)SC)cc1 (centres undefined) | inactive: 12.5%
CSc1ccc(Nc2c([N+](=O)[O-])cc([N+](=O)[O-])cc2[N+](=O)[O-])cc1 | inactive: 10.7%
O=C(OC1CN2CCC1CC2)c1cccc([N+](=O)[O-])c1 (centres undefined) | inactive: 9.31%
CCC(C)N(CC(C)C)C(=S)SC(NC(C)=O)C(Cl)(Cl)Cl (centres undefined) | inactive: 11.4%
COC(=O)C1(C)COP(=O)(N2CCCC2)OC1 (centres undefined) | inactive: 1.79%
COP1(=S)c2c(C)nn(CCC#N)c2N=C(c2ccc(F)cc2)N1C (centres undefined) | inactive: 12.4%
O=C(Nc1ccncc1[N+](=O)[O-])c1ccc([N+](=O)[O-])cc1[N+](=O)[O-] | inactive: 6.92%
O=C(COc1ccccc1)OC1CN2CCC1CC2 (centres undefined) | inactive: 2.48%
O=C(O)C(=O)c1ccc(N(CCCl)CCCl)cc1 | inactive: 10.7%

— PubChem BioAssay AID720711 (National Center for Advancing Translational Sciences (NCATS), 2013)
